Test results: ChEMBL document CHEMBL3244331, “2,6-Methano-3-benzazocine-11-ropanols. Lack of antagonism between optical antipodes and observation of potent narcotic antagonism by two n-methyl derivatives” (1978)

Tested on: Rattus norvegicus
Assay: Narcotic antagonist activity in rat assessed as antagonism of phenazocine response at 80 mg/kg, sc by tail flick assay

`CC(C)(C)C(C)(O)CC[C@]1(C)[C@H]2Cc3ccc(O)cc3[C@@]1(C)CCN2CC1CC1` (stereo partly specified) was tested, and the inhibition was “inactive”.

Calls of active or inactive are those of the source. The rule behind the calls is not given here.
